Assay results: patent publication US20240299542A1, “NATURAL KILLER CELLS ENGINEERED TO REDUCE OR ELIMINATE CBL-B AND USES THEREOF” (City of Hope, priority 2021, published 2024)

How the values were obtained:
Cbl-b [1] = experiment: Cbl-b mRNA by qRT-PCR after IL-15 or IL-2 treatment of primary human NK cells; assay type: cell-based; conditions: IL-15 (10 ng/ml) or IL-2 (150 IU/ml)
Cbl-b [2] = experiment: Cbl-b protein by immunoblot after stimulation of primary human NK cells with cytokines or activating antibody; assay type: cell-based; conditions: 24 h cytokine stimulation, compared to resting NK cells without cytokines
Description: (FIG. 1A) Enriched primary human NK cells were treated with IL-2 (150 IU/ml), IL-7 (50 ng/ml), IL-12 (10 ng/ml), IL-18 (10 ng/ml), IL-21 (20 ng/ml) or IL-15 (20 ng/ml) for 24 h followed by immunoblot analysis (n=5 donors). […] (FIG. 1B) Enriched primary human NK cells were co-cultured with the K562 myeloid leukemia cell line (E/T ratio=10:1) for 24 h followed by immunoblot analysis. Summary data are from three independent experiments. (FIG. 1C) Primary human NK cells were treated with different concentrations of IL-15 for 24 h followed by immunoblot analysis (n=5 donors). […]
FIG. 6A Enriched primary human NK cells were cocultured with Molm-13 or MV4-11 leukemia cell lines (E/T ratio=10:1) for 24 h prior to assessment of Cbl-b by immunoblot analysis. […] FIG. 6C The expression of Cbl-b was assessed by qRT-PCR after primary human NK cells were treated with IL-15 (10 ng/ml) or IL-2 (150 IU/ml) at different time point. […] FIG. 6D The expression of Cbl-b was assessed by qRT-PCR after primary human NK cells were treated with IL-15 (10 ng/ml) or IL-2 (150 IU/ml) for 24 h. […] FIG. 6E The expression of Cbl-b was assessed by qRT-PCR after primary human NK cells were incubated with K562 cells (E/T ratio=10:1) for 24 h. […]
Immunoblotting. […] Densitometric analysis was performed to quantify intensity of gel bands with Image J (National Institutes of Health). […]

What does the source list for “IL-2: Recombinant human IL-2 protein obtained from National Institutes of Health”?
upregulation of Cbl-b mRNA at 24 h post stimulation (Cbl-b [1]; 24 h): sustained; time of peak Cbl-b mRNA (Cbl-b [1]; compared to unstimulated NK cells): 4 h; expression of Cbl-b protein (ratio to β-actin) (Cbl-b [2]): induced an increase in the expression of Cbl-b
